Literature values, collected in patent US12239707B2, “Photodynamic compositions and methods of use” (MT RESEARCH, LLC, priority 2018, dated 2025).

Test system: SKOV-3/luc tumors

Substance: IR700 conjugated with trastuzumab: IR700 conjugated with trastuzumab, photoimmunotherapy agent (Sato and coworkers)
- relative luminescence units (RLU) compared to NIR-treated mice (day 4 post light treatment, 100 J/cm2 NIR light): lower
- relative luminescence units (RLU) (day 14, 100 J/cm2 NIR light at day zero): recovered to post-treatment levels
